{"sequences": {"note": "The chains behind the UniProt entries cited, without tags or fusion partners. Where a name states a change or a piece, a line headed by the entry shows the natural chain unless it says otherwise.", "UniProt Q92519": "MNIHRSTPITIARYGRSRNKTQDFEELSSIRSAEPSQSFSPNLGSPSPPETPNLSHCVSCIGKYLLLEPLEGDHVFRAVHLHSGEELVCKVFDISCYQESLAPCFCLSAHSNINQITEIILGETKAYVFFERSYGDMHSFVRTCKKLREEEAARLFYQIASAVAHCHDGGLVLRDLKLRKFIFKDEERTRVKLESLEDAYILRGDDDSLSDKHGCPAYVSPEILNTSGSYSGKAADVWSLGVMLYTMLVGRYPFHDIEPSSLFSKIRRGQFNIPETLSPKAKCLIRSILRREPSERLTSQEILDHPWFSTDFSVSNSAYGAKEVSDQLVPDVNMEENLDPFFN"}, "source": "patent US12721838B2", "about": "(Henry Ford Health System, priority 2020, dated 2026)", "biological_target": "T1, Trib2-Luciferase (Luc-Trib2) fusion (Homo sapiens, UniProt Q92519)", "T1 sequence (Q92519 with tags, fused parts or gaps)": "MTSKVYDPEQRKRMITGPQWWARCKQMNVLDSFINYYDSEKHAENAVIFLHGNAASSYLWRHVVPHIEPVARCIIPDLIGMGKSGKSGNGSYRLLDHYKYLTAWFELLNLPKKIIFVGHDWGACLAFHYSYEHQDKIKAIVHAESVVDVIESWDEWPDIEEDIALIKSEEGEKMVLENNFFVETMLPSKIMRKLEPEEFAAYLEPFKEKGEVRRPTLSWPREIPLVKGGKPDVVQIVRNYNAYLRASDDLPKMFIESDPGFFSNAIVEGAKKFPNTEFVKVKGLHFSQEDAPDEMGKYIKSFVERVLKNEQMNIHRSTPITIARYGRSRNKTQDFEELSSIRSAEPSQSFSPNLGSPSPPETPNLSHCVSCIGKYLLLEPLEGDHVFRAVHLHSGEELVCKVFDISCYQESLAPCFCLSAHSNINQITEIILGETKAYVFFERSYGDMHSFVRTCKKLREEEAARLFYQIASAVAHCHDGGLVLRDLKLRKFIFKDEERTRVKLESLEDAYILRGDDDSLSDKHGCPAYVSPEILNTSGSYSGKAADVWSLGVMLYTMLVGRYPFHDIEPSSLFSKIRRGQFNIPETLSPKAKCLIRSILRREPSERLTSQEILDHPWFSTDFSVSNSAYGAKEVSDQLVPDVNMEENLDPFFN", "assay": "cell-based", "conditions": "HFF, read-out: Luciferase activity (%)", "data": [{"smiles": "O=c1[nH]ccc2c(S(=O)(=O)N3CCCNCC3)cccc12", "note": "[Hydroxyfasudil]", "values": [{"measurement": "activity at 10 µM", "result": 46, "unit": "%"}]}]}
